The values that follow come from US12673951B2, “Substituted pyrazoloquinazolinone compounds and application thereof” (IMPACT THERAPEUTICS (SHANGHAI), INC, priority 2019, dated 2026).

Amino acid sequences for entries named in this document (tags omitted). A change or cut given only in a name is not applied to a line headed by its entry.
UniProt Q13315: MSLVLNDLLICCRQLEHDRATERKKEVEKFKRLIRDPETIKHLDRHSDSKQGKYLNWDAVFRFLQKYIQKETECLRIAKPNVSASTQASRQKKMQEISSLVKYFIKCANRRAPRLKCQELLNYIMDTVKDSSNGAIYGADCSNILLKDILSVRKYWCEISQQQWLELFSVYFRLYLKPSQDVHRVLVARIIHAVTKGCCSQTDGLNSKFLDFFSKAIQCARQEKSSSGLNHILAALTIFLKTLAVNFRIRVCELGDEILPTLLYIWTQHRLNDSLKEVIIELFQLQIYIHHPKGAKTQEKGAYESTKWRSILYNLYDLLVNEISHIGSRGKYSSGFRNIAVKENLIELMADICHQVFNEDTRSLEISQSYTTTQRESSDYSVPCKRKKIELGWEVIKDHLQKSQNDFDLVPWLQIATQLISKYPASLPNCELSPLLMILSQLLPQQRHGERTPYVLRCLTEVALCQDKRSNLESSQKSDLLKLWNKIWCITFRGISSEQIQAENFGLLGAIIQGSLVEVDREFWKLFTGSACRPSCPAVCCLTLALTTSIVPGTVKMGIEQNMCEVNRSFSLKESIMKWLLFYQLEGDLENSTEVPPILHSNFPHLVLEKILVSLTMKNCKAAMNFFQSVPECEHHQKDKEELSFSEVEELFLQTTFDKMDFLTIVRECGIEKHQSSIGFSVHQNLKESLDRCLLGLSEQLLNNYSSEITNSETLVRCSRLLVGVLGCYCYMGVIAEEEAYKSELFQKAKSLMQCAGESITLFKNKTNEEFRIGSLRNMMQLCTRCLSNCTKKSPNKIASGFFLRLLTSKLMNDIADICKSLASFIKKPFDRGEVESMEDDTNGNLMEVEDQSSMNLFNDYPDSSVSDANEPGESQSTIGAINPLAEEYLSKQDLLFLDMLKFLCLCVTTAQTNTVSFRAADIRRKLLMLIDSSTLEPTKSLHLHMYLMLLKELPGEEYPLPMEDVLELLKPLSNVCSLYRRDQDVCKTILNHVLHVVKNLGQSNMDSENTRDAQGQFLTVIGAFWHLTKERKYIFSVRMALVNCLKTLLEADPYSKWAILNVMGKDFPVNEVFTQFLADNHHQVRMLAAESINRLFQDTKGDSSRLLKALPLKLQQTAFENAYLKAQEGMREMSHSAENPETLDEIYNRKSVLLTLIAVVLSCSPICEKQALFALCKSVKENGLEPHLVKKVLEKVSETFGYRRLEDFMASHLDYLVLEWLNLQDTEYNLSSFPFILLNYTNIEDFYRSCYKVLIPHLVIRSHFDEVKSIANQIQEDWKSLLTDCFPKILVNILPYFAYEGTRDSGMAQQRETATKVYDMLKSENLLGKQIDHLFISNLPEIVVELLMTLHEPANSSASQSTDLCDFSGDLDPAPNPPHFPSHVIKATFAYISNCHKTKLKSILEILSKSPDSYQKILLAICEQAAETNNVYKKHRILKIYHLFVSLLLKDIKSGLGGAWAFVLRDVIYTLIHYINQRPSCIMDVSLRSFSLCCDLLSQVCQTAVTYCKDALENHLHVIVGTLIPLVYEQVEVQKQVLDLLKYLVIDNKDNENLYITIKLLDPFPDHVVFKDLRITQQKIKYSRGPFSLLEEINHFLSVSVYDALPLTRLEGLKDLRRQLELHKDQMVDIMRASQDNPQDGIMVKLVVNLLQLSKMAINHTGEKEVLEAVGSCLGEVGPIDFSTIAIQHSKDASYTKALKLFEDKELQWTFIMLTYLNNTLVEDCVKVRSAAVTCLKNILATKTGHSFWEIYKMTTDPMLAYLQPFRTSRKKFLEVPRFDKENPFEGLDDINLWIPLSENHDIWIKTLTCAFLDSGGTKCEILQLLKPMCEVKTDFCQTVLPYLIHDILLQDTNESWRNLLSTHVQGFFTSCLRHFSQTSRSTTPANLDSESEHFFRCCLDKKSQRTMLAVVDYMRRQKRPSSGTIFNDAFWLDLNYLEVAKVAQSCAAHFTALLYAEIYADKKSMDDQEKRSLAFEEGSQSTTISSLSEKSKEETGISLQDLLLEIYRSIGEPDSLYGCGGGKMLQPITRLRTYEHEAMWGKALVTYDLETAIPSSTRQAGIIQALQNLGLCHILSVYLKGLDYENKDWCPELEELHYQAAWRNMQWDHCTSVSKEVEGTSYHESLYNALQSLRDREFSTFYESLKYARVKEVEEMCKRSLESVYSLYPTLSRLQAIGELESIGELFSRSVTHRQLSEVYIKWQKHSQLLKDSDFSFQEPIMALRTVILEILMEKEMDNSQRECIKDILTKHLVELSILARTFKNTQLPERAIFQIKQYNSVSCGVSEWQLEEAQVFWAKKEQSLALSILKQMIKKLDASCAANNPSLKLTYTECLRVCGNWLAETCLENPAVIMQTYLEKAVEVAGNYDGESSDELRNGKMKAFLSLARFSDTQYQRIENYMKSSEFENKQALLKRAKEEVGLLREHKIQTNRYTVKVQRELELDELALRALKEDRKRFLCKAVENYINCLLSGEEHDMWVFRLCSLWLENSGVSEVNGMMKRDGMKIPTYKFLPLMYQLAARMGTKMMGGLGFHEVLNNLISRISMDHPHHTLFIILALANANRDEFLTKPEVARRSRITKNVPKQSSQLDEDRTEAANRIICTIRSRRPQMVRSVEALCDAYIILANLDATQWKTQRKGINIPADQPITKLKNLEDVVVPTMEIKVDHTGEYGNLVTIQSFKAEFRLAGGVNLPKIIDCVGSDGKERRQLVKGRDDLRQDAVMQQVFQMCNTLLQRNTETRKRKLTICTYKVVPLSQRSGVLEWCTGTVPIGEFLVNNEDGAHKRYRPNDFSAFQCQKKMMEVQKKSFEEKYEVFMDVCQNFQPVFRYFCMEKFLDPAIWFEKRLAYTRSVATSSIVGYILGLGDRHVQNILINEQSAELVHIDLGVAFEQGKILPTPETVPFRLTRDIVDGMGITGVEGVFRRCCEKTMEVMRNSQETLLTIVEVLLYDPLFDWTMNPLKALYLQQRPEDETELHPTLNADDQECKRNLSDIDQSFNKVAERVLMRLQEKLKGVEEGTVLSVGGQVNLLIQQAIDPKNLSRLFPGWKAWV

Each structure is given as a SMILES string.

In this experiment the target is T1, ATM enzyme (Homo sapiens, UniProt Q13315).
T1 construct: purchased Eurofins 14-933
Put plainly: ATM kinase assay (HTRF). In kind it is biochemical. Particulars: 0.5 h, read-out: Inh (%) ATM kinase inhibition rate. The protocol: The mixture was centrifuged at 1000 rpm for 1 minute, and reacted at room temperature away from light for 30 minutes. Then 5 μL of EDTA stop solution (250 mM) was added to stop the reaction. After 5 μL of detection mixture (Anti-phospho-p53 (ser15)-K (Cisbio, #61P08KAE, 0.084 ng/μL) and Anti-GST-d2 (Cisbio, #61GSTDLA, 5.00 ng/μL)) was finally added to each well, then incubate the plate overnight at room temperature.
Relative fluorescence ratio was calculated: Ratio665 nm/615 nm-Ratiobackground, and inhibition rate %=(1−(relative fluorescence ratio of test compound well−relative fluorescence ratio of positive control well)/(relative fluorescence ratio of negative control well−relative fluorescence ratio of positive control well))×100 was calculated. Data were analyzed using GraphPad Prism6.0, and fitted using the curve equation: Y=Bottom+(Top−Bottom)/(1+10^((Log IC50−X)×HillSlope)) and IC50 values were calculated.
(In TR-FRET formats the signal depends on donor and acceptor labels being close together.)
With `CC(C)c1c(=O)n(C)n2cnc3ccc(-c4ccc(OCCCN(C)C)nc4)cc3c12` [Example 19, 9-(6-(3-(dimethylamino)propoxy)pyridin-3-yl)-1-isopropyl-3-methylpyrazolo[1,5-c]quinazolin-2(3H)-one], the inhibition – broadly, the change of the read-out against control, counted positive when it falls – at 0.1 µM amounted to 74%; the inhibition at 1 µM turned out to be 95%; the inhibition at 10 µM was found to be 100%.

Consider `CC(C)c1c(=O)n(C)n2cnc3ccc(-c4ccc(OCCCN5CCCCC5)nc4)cc3c12` [Example 20, 9-(6-(3-(piperidin-1-yl)propoxy)pyridin-3-yl)-1-isopropyl-3-methyl-pyrazolo[1,5-c]quinazolin-2(3H)-one], for which the inhibition at 0.1 µM was determined as 71%, the inhibition at 1 µM was determined as 97% and the inhibition at 10 µM stood at 98%.

`CC(C)c1c(=O)n(C)n2cnc3ccc(-c4ccc(N5CCC(N(C)C)CC5)c(F)c4)cc3c12` [Example 21, 9-(4-(4-(dimethylamino)piperidin-1-yl)-3-fluorophenyl)-1-isopropyl-3-methylpyrazolo[1,5-c]quinazolin-2(3H)-one]: the inhibition at 0.1 µM was 60%, the inhibition at 1 µM amounted to 97% and the inhibition at 10 µM came to 100%.

Regarding `CC(C)c1c(=O)n(C)n2cnc3ccc(-c4ccc(N5CCC(N(C)C)CC5)c(Cl)c4)cc3c12` [Example 22, 9-(3-chloro-4-(4-(dimethylamino)piperidin-1-yl)phenyl)-1-isopropyl-3-methylpyrazolo[1,5-c]quinazolin-2(3H)-one], the inhibition at 0.1 µM came to 51%, the inhibition at 1 µM was found to be 93% and the inhibition at 10 µM amounted to 99%.

Consider `CC(C)c1c(=O)n(C)n2cnc3ccc(-c4ccc(N5CCC(N(C)C)CC5)c(C(F)(F)F)c4)cc3c12` [Example 23, 9-(4-(4-(dimethylamino)piperidin-1-yl)-3-(trifluoromethyl)phenyl)-1-isopropyl-3-methylpyrazolo[1,5-c]quinazolin-2(3H)-one], for which the inhibition at 0.1 µM was 26%, the inhibition at 1 µM amounted to 95% and the inhibition at 10 µM worked out at 100%.

As to `CC(C)c1c(=O)n(C)n2cnc3ccc(-c4ccc(OCCCN(C)C)c(F)c4)cc3c12` [Example 24, 9-(4-(3-(dimethylamino)propoxy)-3-fluorophenyl)-1-isopropyl-3-methylpyrazolo[1,5-c]quinazolin-2(3H)-one], the inhibition at 10 µM is 98%.

With `CC(C)c1c(=O)n(C)n2cnc3ccc(-c4ccc(OCCCN(C)C)c(C(F)(F)F)c4)cc3c12` [Example 25, 9-(4-(3-(dimethylamino)propoxy)-3-(trifluoromethyl)phenyl)-1-isopropyl-3-methylpyrazolo[1,5-c]quinazolin-2(3H)-one], the inhibition at 0.1 µM amounted to 35%, the inhibition at 1 µM is 98% and the inhibition at 10 µM was found to be 100%.
